According to patent publication US20040166058A1, “Ethylenedicysteine (EC)-drug conjugates, compositions and methods for tissue specific disease imaging” (Board of Regents, The University of Texas System, priority 2002, published 2004):

System: DiFi cells
Test: Cell viability (MTT) assay in DiFi cells
Type: cell-based
Conditions: compared with untreated control cells
Method: Briefly, DiFi cells are known to undergo apoptosis when they are exposed to C225 in cell culture. Cells were seeded onto 24-well culture plates. Cell viability was assayed by adding 50 ul of 10 mg/ml MTT (3-[4,5-dimethylthiazol-2-yl]-2,5-diphenyltetrazolium bromide) (Sigma) into 0.5 ml of culture medium and the cells were incubated for 3 h at a 37° C. in a CO2 incubator, followed by cell lysis with buffer containing 20% SDS in dimethyl formamide/H2O, pH 4.7, at 37° C. for more than 6 h. Cell viability was then determined by measuring the optical absorbance of cell lysate at a wavelength of 595 nm and normalizing the value with the corresponding untreated cells.

Substance: EC-C225
- Cell viability / cell proliferation: biologically active in inducing cell death
